The data set deals with RBCs. Here is the method:
The release of hemoglobin from the RBCs is considered as a sign of disrupting the cell membrane and consequently extracting the inner leaflet.
The hemolysis of RBCs during lipid exchange was measured using UV-Vis spectroscopy.
Presence of hemoglobin in the exchange solution is believed to be a disruption of the RBCs, lead to extracting the inner leaflet of the membrane. To monitor the amount of hemolysis after the exchange, the cells were centrifuged at 750×g for 5 minutes, 200 μL of the supernatant was collected, and its absorbance at 541 nm was measured using a plate reader. RBCs suspended in DPBS and water for 1 hour, at the same hematocrit concentrations as the ones used for exchange experiments, were used as negative and positive controls for the hemolysis. Both controls were also centrifuged at 750×g for 5 minutes.

Take brain SM [bSM]: the “hemolysis of RBCs during lipid exchange” value was “lowest hemolysis”.

The record behind these values is patent US20230172189A1, “Methods for Extending the Shelf-life of Stored Donor Blood and/or Red Blood Cells and Treated Red Blood Cell Compositions Produced Thereby” (Ohio University, priority 2020, published 2023).
